From paper PMC7723054
The list shows a part of the results.

Experiments:
Test in all cases: FOREST: bead pull-down of RNA structure library v1, barcode microarray; U1A/LIN28A: 20 mM HEPES pH 7.5, 80 mM KCl, 20 mM NaCl, 10% glycerol, 2 mM DTT, 0.1 ug/uL BSA, 4 C; BG4/CIRBP/DHX36: 10 mM Tris-HCl pH 7.5, 100 mM KCl (or LiCl),; high values mean tight binding
LIN28A = molecular target: T1, LIN28A (human?, UniProt Q9H9Z2 1-209)
T1 sequence: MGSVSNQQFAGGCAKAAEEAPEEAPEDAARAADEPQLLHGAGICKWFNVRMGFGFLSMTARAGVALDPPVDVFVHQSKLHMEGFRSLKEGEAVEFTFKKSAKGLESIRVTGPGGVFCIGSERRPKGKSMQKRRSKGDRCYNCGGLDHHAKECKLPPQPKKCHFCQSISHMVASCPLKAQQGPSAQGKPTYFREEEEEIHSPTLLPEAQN

CIRBP = molecular target: T2, CIRBP (Homo sapiens, UniProt Q14011 1-172)
T2 sequence: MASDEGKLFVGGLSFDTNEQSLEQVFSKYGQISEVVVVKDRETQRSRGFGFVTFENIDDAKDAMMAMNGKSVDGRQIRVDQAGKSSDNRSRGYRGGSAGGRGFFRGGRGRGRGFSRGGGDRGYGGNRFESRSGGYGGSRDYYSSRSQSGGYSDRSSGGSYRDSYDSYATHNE

DHX36 = molecular target: T3, DHX36 (Homo sapiens, UniProt Q9H2U1 1-1008)
T3 sequence: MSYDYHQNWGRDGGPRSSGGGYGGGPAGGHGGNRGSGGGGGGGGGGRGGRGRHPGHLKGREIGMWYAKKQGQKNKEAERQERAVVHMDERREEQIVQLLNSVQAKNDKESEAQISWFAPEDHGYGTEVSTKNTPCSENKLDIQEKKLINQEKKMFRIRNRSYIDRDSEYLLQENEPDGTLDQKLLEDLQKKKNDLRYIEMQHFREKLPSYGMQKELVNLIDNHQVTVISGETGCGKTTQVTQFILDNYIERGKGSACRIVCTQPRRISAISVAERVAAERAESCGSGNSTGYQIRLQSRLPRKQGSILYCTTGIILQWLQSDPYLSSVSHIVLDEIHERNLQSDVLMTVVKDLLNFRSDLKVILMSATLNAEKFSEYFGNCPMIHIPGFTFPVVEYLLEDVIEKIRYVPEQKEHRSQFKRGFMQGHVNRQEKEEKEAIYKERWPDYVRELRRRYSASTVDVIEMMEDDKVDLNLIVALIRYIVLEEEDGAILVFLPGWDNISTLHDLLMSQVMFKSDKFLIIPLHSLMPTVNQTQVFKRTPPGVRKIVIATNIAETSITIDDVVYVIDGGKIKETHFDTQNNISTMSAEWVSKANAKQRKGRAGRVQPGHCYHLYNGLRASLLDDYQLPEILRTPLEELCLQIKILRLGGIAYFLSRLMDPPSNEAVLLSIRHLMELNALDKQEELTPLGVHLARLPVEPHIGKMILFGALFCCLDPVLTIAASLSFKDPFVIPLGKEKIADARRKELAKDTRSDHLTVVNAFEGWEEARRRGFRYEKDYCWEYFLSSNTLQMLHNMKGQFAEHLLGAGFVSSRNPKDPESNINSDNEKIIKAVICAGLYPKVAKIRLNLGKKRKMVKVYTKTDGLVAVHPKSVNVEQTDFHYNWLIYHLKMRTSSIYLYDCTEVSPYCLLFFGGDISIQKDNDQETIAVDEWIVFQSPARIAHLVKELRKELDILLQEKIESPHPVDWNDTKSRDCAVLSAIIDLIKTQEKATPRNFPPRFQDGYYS

B1: hsa-mir-661 (structured_RNA)
RNA: GGGAAAAUCGGAGGGCUUUUGCACAAUGGGUGUACGAAGUUUCAGCGGUUUCGGGCUGCCGCUGAAGCUUCGUGCAC
binding signal (LIN28A): 0.705 z-score | binding signal (CIRBP): 0.997 z-score | binding signal (DHX36): 0.765 z-score

B2: NEAT1_ParasoR_ID31 (structured_RNA)
RNA: GGGAAUGGGAUAUAACCACACAAAGGAUGGUGUACGAAGUUUCAGCAACAUGUCAUAUUGUACGUGUUGCUGAAGCUUCGUGCAC
binding signal (LIN28A): 0.71 z-score | binding signal (CIRBP): 1.33 z-score | binding signal (DHX36): -0.243 z-score

B3: hsa-mir-3116-1 (structured_RNA)
RNA: GGGAGGGGAAGCGUGUCUUCGAUCCUUUGGUGUACGAAGUUUCAGCGGCACUGGGUAUCGUAGGUGCCGCUGAAGCUUCGUGCAC
binding signal (LIN28A): 0.713 z-score | binding signal (CIRBP): -0.752 z-score | binding signal (DHX36): 1.34 z-score

B4: hsa-mir-5007 (structured_RNA)
RNA: GGGAAACCGGAUGAAAGUGGCUGAUCCAGGUGUACGAAGUUUCAGCUGGUUUGACACAGAGCUAAAUCAGCUGAAGCUUCGUGCAC
binding signal (LIN28A): 0.702 z-score | binding signal (CIRBP): 1.14 z-score | binding signal (DHX36): -0.587 z-score

B5: hsa-mir-4464 (structured_RNA)
RNA: GGGAAAGCGGUCUUAUGCAACAACAUGCGGUGUACGAAGUUUCAGCAAUAAAGUAUGUCCACAGCUGAAAGGACAUACUUUAUUGCUGAAGCUUCGUGCAC
binding signal (LIN28A): 0.688 z-score | binding signal (CIRBP): 1.09 z-score | binding signal (DHX36): 0.829 z-score

B6: hsa-mir-3937 (structured_RNA)
RNA: GGGAGGACGUUCGGUAAAGAUAUUCGUCGGUGUACGAAGUUUCAGCCUGUUGUUUCAGCUCGACAACAACAGGCUGAAGCUUCGUGCAC
binding signal (LIN28A): 0.66 z-score | binding signal (CIRBP): 0.517 z-score | binding signal (DHX36): 0.303 z-score

B7: hsa-mir-6867 (structured_RNA)
RNA: GGGAAGCCGUUAAGACGUCCAUGUGUGCGGUGUACGAAGUUUCAGCGAAGGGAAGCUGGGAACCUGACUGCCUCGCUGAAGCUUCGUGCAC
binding signal (LIN28A): 0.72 z-score | binding signal (CIRBP): 0.675 z-score | binding signal (DHX36): -0.358 z-score

B8: G4_(GGGUU)8: (structured_RNA)
RNA: GGGCACCGUACUGCCGGCGACAAAGUAUGGUGUACGAAGUUUCAGCGGGUUGGGUUGGGUUGGGUUGGGUUGGGUUGGGUUGGGUUGCUGAAGCUUCGUGCAC
binding signal (LIN28A): 0.698 z-score | binding signal (CIRBP): 4.56 z-score | binding signal (DHX36): 7.91 z-score

B9: hsa-mir-99a (structured_RNA)
RNA: GGGAAACAAAACAGGGCCCUAGACACUUGGUGUACGAAGUUUCAGCCUUGUGGUGAAGUGGACCGCACAAGGCUGAAGCUUCGUGCAC
binding signal (LIN28A): 0.69 z-score | binding signal (CIRBP): -0.0254 z-score | binding signal (DHX36): -0.237 z-score

B10: hsa-mir-4735 (structured_RNA)
RNA: GGGAGAGUGGCAAUAUGGUACAGCCGCUGGUGUACGAAGUUUCAGCCUUCGGUAUUCAUCAAAAAUACCAAAGGCUGAAGCUUCGUGCAC
binding signal (LIN28A): 0.652 z-score | binding signal (CIRBP): -0.328 z-score | binding signal (DHX36): 0.783 z-score

B11: hsa-mir-3195 (structured_RNA)
RNA: GGGAAUCAGAUCGCGUUGUGCACCAGGAGGUGUACGAAGUUUCAGCGGUUGGCCGCUGACCCCCGCGGGGCCCCCGGCGGCCGCUGAAGCUUCGUGCAC
binding signal (LIN28A): 0.687 z-score | binding signal (CIRBP): -0.425 z-score | binding signal (DHX36): 0.35 z-score

B12: hsa-mir-19a (structured_RNA)
RNA: GGGACAAAGGCUGGUUAGCUGUAUUCGCGGUGUACGAAGUUUCAGCCACUACAAGAAGAAUGUAGUUGUGGCUGAAGCUUCGUGCAC
binding signal (LIN28A): 0.671 z-score | binding signal (CIRBP): 0.761 z-score | binding signal (DHX36): 0.447 z-score

B13: hsa-mir-200a (structured_RNA)
RNA: GGGACAUUUCCGCAAAACACUCAGACUGGGUGUACGAAGUUUCAGCGCUGGAUUUCCCAGCUUGACUCUAACGCUGAAGCUUCGUGCAC
binding signal (LIN28A): 0.665 z-score | binding signal (CIRBP): -0.196 z-score | binding signal (DHX36): -0.107 z-score

B14: hsa-mir-4319 (structured_RNA)
RNA: GGGAACGCCGUGAGGACAGCUAUCUUUAGGUGUACGAAGUUUCAGCCCACUGGGAAUGCUCCCUGAGGACGUUAUAUGAGUGGCUGAAGCUUCGUGCAC
binding signal (LIN28A): 0.703 z-score | binding signal (CIRBP): -0.101 z-score | binding signal (DHX36): -0.924 z-score

B15: hsa-mir-618 (structured_RNA)
RNA: GGGAAGGAGUCAGUAGGACUAGCCAUCUGGUGUACGAAGUUUCAGCGAGUGUAAUUACGUACAUGCAGUAGCUCGCUGAAGCUUCGUGCAC
binding signal (LIN28A): 0.755 z-score | binding signal (CIRBP): 1.39 z-score | binding signal (DHX36): 1.24 z-score

B16: hsa-mir-514b (structured_RNA)
RNA: GGGAACCAUAAAGAGGGCACUAUCAAGUGGUGUACGAAGUUUCAGCCAAUCAUGUGUAAUUAGAUAUGAUUGGCUGAAGCUUCGUGCAC
binding signal (LIN28A): 0.677 z-score | binding signal (CIRBP): 0.877 z-score | binding signal (DHX36): -0.176 z-score

B17: hsa-mir-34c (structured_RNA)
RNA: GGGAAGGAAUUUAGAUCGUCACGCGGAGGGUGUACGAAGUUUCAGCGAUUGCUAAUAGUACCAAUCGCUGAAGCUUCGUGCAC
binding signal (LIN28A): 0.72 z-score | binding signal (CIRBP): 0.731 z-score | binding signal (DHX36): 0.583 z-score

B18: hsa-mir-494 (structured_RNA)
RNA: GGGAACAUGCGAGCGUAAACGAUUAGAUGGUGUACGAAGUUUCAGCUUCUCUUUAUUUAUGAUGAAGCUGAAGCUUCGUGCAC
binding signal (LIN28A): 0.738 z-score | binding signal (CIRBP): 1.2 z-score | binding signal (DHX36): -0.454 z-score

B19: hsa-mir-3909 (structured_RNA)
RNA: GGGACAGAGCGCAGUUAGUACCACCCAAGGUGUACGAAGUUUCAGCGACAGGGAAAAGCACACAAGGAACUUGUCGCUGAAGCUUCGUGCAC
binding signal (LIN28A): 0.658 z-score | binding signal (CIRBP): -0.124 z-score | binding signal (DHX36): -0.81 z-score

B20: hsa-mir-1912 (structured_RNA)
RNA: GGGACAUUACCAUCCUGUAGUAGUCGGCGGUGUACGAAGUUUCAGCUGUAUAGUAUUAUUCAAUACCGCUGAAGCUUCGUGCAC
binding signal (LIN28A): 0.678 z-score | binding signal (CIRBP): -0.799 z-score | binding signal (DHX36): -1.02 z-score

B21: hsa-mir-323a (structured_RNA)
RNA: GGGAAAAGAGGUGCUACGGUCUGAUUACGGUGUACGAAGUUUCAGCCGUUCGCUUUAUUUAUGGCGCACAGCUGAAGCUUCGUGCAC
binding signal (LIN28A): 0.651 z-score | binding signal (CIRBP): 1.2 z-score | binding signal (DHX36): 0.596 z-score

B22: hsa-mir-505 (structured_RNA)
RNA: GGGAACGUAAGGUACUCAGAUGAGGGUCGGUGUACGAAGUUUCAGCGAUGUUUCUGCCAGUUUAGCGUCGCUGAAGCUUCGUGCAC
binding signal (LIN28A): 0.659 z-score | binding signal (CIRBP): 0.903 z-score | binding signal (DHX36): 0.132 z-score

B23: hsa-mir-4639 (structured_RNA)
RNA: GGGAAGAAACGUUCAGUCAAUGAUAGCCGGUGUACGAAGUUUCAGCUUGAUGUCAGGUUAUCCCCAAGCAUAACCUCACGCUGAAGCUUCGUGCAC
binding signal (LIN28A): 0.704 z-score | binding signal (CIRBP): 0.176 z-score | binding signal (DHX36): 0.108 z-score

B24: hsa-mir-606 (structured_RNA)
RNA: GGGAAUUGAAAGUGCCAACAAUGGUGGGGGUGUACGAAGUUUCAGCGUUUUACUAUGAUGAGGUGUGCCAUCCACCCCAUCAUAGUAAACGCUGAAGCUUCGUGCAC
binding signal (LIN28A): 0.694 z-score | binding signal (CIRBP): 1.15 z-score | binding signal (DHX36): 1.67 z-score

B25: hsa-mir-548a-2 (structured_RNA)
RNA: GGGAAAUCAGGUAGUGAUGGCCUUCACCGGUGUACGAAGUUUCAGCUUUGCCGUUAAAAGUAAUGGCAGCUGAAGCUUCGUGCAC
binding signal (LIN28A): 0.739 z-score | binding signal (CIRBP): 0.0436 z-score | binding signal (DHX36): -0.869 z-score
